Legend:
[1] = biological target: JAK1 (Homo sapiens (Human), UniProt P23458); experiment: Jak biochemical HTRF assay, JAK1; conditions: recombinant purified GST-tagged catalytic domain; HTRF format; [ATP] 31.8 μM
From the text: (§1) Jak Biochemical HTRF Assay Protocol
(§2) Subsequent reagent additions employed an Agilent Bravo.

Amino acid sequences for entries named in this document (tags omitted). Residues count along the entry.
UniProt P23458, 875-1153: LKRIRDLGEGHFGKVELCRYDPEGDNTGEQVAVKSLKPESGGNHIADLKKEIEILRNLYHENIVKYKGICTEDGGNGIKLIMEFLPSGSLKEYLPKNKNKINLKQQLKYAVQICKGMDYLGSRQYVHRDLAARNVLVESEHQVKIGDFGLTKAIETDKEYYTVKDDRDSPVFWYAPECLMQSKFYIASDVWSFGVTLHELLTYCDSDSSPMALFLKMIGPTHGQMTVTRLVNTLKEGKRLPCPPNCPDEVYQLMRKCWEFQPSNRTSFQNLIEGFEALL
UniProt O60674, 849-1124: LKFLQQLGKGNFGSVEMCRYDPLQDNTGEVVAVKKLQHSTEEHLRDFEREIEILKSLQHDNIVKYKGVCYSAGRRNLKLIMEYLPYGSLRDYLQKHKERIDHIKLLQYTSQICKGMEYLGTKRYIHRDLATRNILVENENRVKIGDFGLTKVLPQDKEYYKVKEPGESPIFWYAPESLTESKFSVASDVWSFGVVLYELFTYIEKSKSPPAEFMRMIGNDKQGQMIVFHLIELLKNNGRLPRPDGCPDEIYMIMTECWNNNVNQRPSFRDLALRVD

[2] = biological target: JAK2 (Homo sapiens (Human), UniProt O60674); experiment: Jak biochemical HTRF assay, JAK2; conditions: recombinant purified GST-tagged catalytic domain; HTRF format; [ATP] 8.5 μM
From the text: as §1, §2

IC50 [1] | IC50 [2] | SMILES
3 nM | 21 nM | N#C[C@@H]1CCOC[C@H]1n1cc(C(N)=O)c(Nc2ccc([C@@H](O)C(F)(F)F)cc2)n1 (single isomer, unassigned) [Example 9-6, 1-[(3S,4R or 3R,4S)-4-cyanotetrahydro-2H-pyran-3-yl]-3-({4-[(1R or 1S)-2,2,2-trifluoro-1-hydroxyethyl]phenyl}amino)-1H-pyrazole-4-carboxamide]
0.09 nM | 0.7 nM | N#C[C@H]1CCOC[C@@H]1n1cc(C(N)=O)c(Nc2ccc([C@H](O)C(F)(F)F)cc2)n1 (single isomer, unassigned) [Example 9-9, 1-[(3R,4S or 3S,4R)-4-cyanotetrahydro-2H-pyran-3-yl]-3-({4-[(1S or 1R)-2,2,2-trifluoro-1-hydroxyethyl]phenyl}amino)-1H-pyrazole-4-carboxamide]
2 nM | 9 nM | C[C@@](O)(c1ccc(Nc2nn([C@@H]3COCC[C@H]3C#N)cc2C(N)=O)cc1)C(F)F (single isomer, unassigned) [Example 9-19, 1-[(3S,4R or 3R,4S)-4-cyanotetrahydro-2H-pyran-3-yl]-3-({4-[(1R or 1S)-2,2-difluoro-1-hydroxy-1-methylethyl]phenyl[amino)-1H-pyrazole-4-carboxamide]
0.5 nM | – | N#C[C@@H]1CCOC[C@H]1n1cc(C(N)=O)c(Nc2ccc(Cl)nc2)n1 (single isomer, unassigned) [Example 9-28, 3-[(6-chloropyridin-3-yl)amino]-1-[(3S,4R or 3R,4S)-4-cyanotetrahydro-2H-pyran-3-yl]-1H-pyrazole-4-carboxamide]
38 nM | – | N#C[C@@H]1CN(C(=O)OCCC2CC2)CC[C@H]1n1cc(C(N)=O)c(Nc2ccc(F)cc2)n1 (racemic) [Example 5-14, 2-cyclopropylethyl (3R,4R and 3S,4S)-4-{4-carbamoyl-3-[(4-fluorophenyl)amino]-1H-pyrazol-1-yl}-3-cyanopiperidine-1-carboxylate]
727 nM | – | COCCCOC(=O)N1CC[C@H](n2cc(C(N)=O)c(Nc3ccc(F)cc3)n2)[C@H](C#N)C1 (racemic) [Example 5-63, 3-methoxypropyl (3R,4S and 3S,4R)-4-{4-carbamoyl-3-[(4-fluorophenyl)amino]-1H-pyrazol-1-yl}-3-cyanopiperidine-1-carboxylate]
467 nM | – | N#C[C@@H]1CN(C(=O)OCc2ccccc2)CC[C@@H]1n1cc(C(N)=O)c(Nc2ccc(F)cc2)n1 (racemic) [Example 5-52, benzyl (3R,4S and 3S,4R)-4-{4-carbamoyl-3-[(4-fluorophenyl)amino]-1H-pyrazol-1-yl}-3-cyanopiperidine-1-carboxylate]
624 nM | – | CC1(COC(=O)N2CC[C@H](n3cc(C(N)=O)c(Nc4ccc(F)cc4)n3)[C@H](C#N)C2)COC1 (racemic) [Example 5-45, (3-methyloxetan-3-yl)methyl (3R,4S and 3S,4R)-4-{4-carbamoyl-3-[(4-fluorophenyl)amino]-1H-pyrazol-1-yl}-3-cyanopiperidine-1-carboxylate]
599 nM | – | N#C[C@@H]1CN(C(=O)OC2CCCCC2)CC[C@@H]1n1cc(C(N)=O)c(Nc2ccc(F)cc2)n1 (racemic) [Example 5-61, cyclohexyl (3R,4S and 3S,4R)-4-{4-carbamoyl-3-[(4-fluorophenyl)amino]-1H-pyrazol-1-yl}-3-cyanopiperidine-1-carboxylate]
251 nM | – | N#C[C@@H]1CN(C(=O)OCC2CC2)CC[C@@H]1n1cc(C(N)=O)c(Nc2ccc(F)cc2)n1 (racemic) [Example 5-46, cyclopropylmethyl (3R,4S and 3S,4R)-4-{4-carbamoyl-3-[(4-fluorophenyl)amino]-1H-pyrazol-1-yl}-3-cyanopiperidine-1-carboxylate]
0.5 nM | – | N#C[C@@H]1CCOC[C@H]1n1cc(C(N)=O)c(Nc2ccc(C(F)F)nc2)n1 (single isomer, unassigned) [Example 9-33, 1-[(3S,4R or 3R,4S)-4-cyanotetrahydro-2H-pyran-3-yl]-3-{[6-(difluoromethyl)pyridin-3-yl]amino}-1H-pyrazole-4-carboxamide]
